The chains behind the UniProt entries cited, without tags or fusion partners. Where a name states a change or a piece, a line headed by the entry shows the natural chain unless it says otherwise.
UniProt P36035: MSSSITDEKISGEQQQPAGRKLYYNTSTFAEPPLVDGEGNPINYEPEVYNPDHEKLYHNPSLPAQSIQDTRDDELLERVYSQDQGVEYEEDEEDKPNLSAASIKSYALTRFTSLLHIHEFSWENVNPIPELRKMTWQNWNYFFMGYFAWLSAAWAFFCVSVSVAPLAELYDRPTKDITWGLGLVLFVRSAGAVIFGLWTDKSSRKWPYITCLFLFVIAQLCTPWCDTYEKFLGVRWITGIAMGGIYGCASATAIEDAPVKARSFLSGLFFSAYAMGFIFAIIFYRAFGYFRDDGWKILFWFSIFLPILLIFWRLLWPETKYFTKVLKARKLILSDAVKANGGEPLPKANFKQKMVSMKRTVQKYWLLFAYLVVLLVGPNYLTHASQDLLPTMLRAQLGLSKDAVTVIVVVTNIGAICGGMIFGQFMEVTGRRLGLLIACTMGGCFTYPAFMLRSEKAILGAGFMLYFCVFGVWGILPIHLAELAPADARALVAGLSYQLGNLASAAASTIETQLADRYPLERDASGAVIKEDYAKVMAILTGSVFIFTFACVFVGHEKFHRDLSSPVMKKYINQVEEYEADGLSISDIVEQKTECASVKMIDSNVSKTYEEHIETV
UniProt P53987, whole entry, looked up, stated change not applied: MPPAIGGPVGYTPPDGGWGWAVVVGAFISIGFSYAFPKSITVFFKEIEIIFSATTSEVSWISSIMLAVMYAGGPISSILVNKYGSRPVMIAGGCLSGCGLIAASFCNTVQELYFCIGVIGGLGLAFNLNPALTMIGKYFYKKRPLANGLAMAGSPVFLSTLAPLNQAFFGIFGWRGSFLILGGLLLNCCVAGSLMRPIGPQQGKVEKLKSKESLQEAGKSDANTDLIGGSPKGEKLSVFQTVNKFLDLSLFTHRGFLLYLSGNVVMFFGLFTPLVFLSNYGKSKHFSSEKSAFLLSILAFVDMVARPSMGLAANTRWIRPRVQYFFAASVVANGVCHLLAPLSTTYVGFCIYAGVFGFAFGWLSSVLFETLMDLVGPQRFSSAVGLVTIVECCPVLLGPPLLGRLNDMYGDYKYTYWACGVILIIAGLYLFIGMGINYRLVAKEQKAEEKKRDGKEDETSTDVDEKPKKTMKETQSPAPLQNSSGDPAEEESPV

In publication PMC11637378, “Optogenetic screening of MCT1 activity implicates a cluster of non-steroidal anti-inflammatory drugs (NSAIDs) as inhibitors of lactate transport” (PLOS ONE, 2024):

Target: R. norvegicus MCT1 (F360C) (UniProt P36035+P53987, F360C)
Assay: optoMEV-MCT1 growth IC50 determination, 384-well assay
Conditions: 18 hours, dose-response of optoMEV-MCT1 normalized to parent strain SAWy518 (Fig 5B)

SMILES | IC50 [µM]
CC1=C(CC(=O)O)c2cc(F)ccc2/C1=C\c1ccc([S+](C)[O-])cc1 (stereo not drawn) | 46
CN1C(C(=O)Nc2ccccn2)=C(O)c2ccccc2S1(=O)=O | 4.4
Cc1cnc(NC(=O)C2=C(O)c3ccccc3S(=O)(=O)N2C)s1 [Meloxicam] | 17
COc1ccc2cc(CCC(C)=O)ccc2c1 [Nabumetone] | 110

Same assay, conditions: optoMEV-MCT1 growth after 18 hours, non-linear regression (Fig 4C)

SMILES | IC50 [µM]
CC(Cc1ccc(O)c(O)c1)C(C)Cc1ccc(O)c(O)c1 (stereo not drawn) | 1.8
CCOC(=O)Oc1c(OC)cc(C(=O)O[C@@H]2C[C@@H]3CN4CCc5c([nH]c6cc(OC)ccc56)[C@H]4C[C@@H]3[C@H](C(=O)OC)[C@H]2OC)cc1OC [Syrosingopine] | 2.3
